Measurements published in PubChem BioAssay (NCI).
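Following 48 hours of exposure in 96-well plates, responses at five concentrations were used to interpolate endpoints linearly. At the GI50, growth is halved. TGI denotes the concentration required for complete inhibition of growth.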

Legend:
Assay in all cases: DTP human tumour cell line panel, 48 h
KM12 colon = test system: KM12 colon
HCT-116 colon = test system: HCT-116 colon
OVCAR-3 ovarian = test system: OVCAR-3 ovarian
SNB-19 CNS = test system: SNB-19 CNS
TK-10 renal = test system: TK-10 renal
ACHN renal = test system: ACHN renal
SK-MEL-28 melanoma = test system: SK-MEL-28 melanoma
NCI-H322M lung = test system: NCI-H322M lung
SK-OV-3 ovarian = test system: SK-OV-3 ovarian
PC-3 prostate = test system: PC-3 prostate
K-562 leukemia = test system: K-562 leukemia
786-0 renal = test system: 786-0 renal
SF-539 CNS = test system: SF-539 CNS
IGROV1 ovarian = test system: IGROV1 ovarian
SF-295 CNS = test system: SF-295 CNS
MDA-MB-231 breast = test system: MDA-MB-231 breast
SK-MEL-5 melanoma = test system: SK-MEL-5 melanoma
T-47D breast = test system: T-47D breast
SR leukemia = test system: SR leukemia
OVCAR-8 ovarian = test system: OVCAR-8 ovarian
SF-268 CNS = test system: SF-268 CNS
HOP-62 NSCLC = test system: HOP-62 NSCLC
MALME-3M melanoma = test system: MALME-3M melanoma
RPMI-8226 leukemia = test system: RPMI-8226 leukemia
UACC-257 melanoma = test system: UACC-257 melanoma
DU-145 prostate = test system: DU-145 prostate
COLO 205 colon = test system: COLO 205 colon
LOX IMVI melanoma = test system: LOX IMVI melanoma
OVCAR-5 ovarian = test system: OVCAR-5 ovarian
CAKI-1 renal = test system: CAKI-1 renal
U251 CNS = test system: U251 CNS
SK-MEL-2 melanoma = test system: SK-MEL-2 melanoma
NCI-H226 lung = test system: NCI-H226 lung
HT29 colon = test system: HT29 colon
HOP-92 NSCLC = test system: HOP-92 NSCLC
EKVX NSCLC = test system: EKVX NSCLC
BT-549 breast = test system: BT-549 breast
A549 NSCLC = test system: A549 NSCLC
NCI/ADR-RES ovarian = test system: NCI/ADR-RES ovarian
MOLT-4 leukemia = test system: MOLT-4 leukemia
NCI-H460 lung = test system: NCI-H460 lung
OVCAR-4 ovarian = test system: OVCAR-4 ovarian
CCRF-CEM leukemia = test system: CCRF-CEM leukemia
A498 renal = test system: A498 renal
SNB-75 CNS = test system: SNB-75 CNS
HL-60(TB) leukemia = test system: HL-60(TB) leukemia
RXF 393 renal = test system: RXF 393 renal
UO-31 renal = test system: UO-31 renal
MCF7 breast = test system: MCF7 breast
MDA-MB-435 = test system: MDA-MB-435
HS 578T breast = test system: HS 578T breast
NCI-H522 lung = test system: NCI-H522 lung
NCI-H23 lung = test system: NCI-H23 lung
HCT-15 colon = test system: HCT-15 colon
SN12C renal = test system: SN12C renal
SW-620 colon = test system: SW-620 colon
MDA-N = test system: MDA-N
UACC-62 melanoma = test system: UACC-62 melanoma
M14 melanoma = test system: M14 melanoma

## [N-]=[N+]=Nc1ccc([As](=O)(O)O)cc1
KM12 colon
  GI50: > 100 µM
  TGI: > 100 µM
HCT-116 colon
  GI50: > 100 µM
  TGI: > 100 µM
OVCAR-3 ovarian
  GI50: > 100 µM
  TGI: > 100 µM
SNB-19 CNS
  GI50: > 100 µM
  TGI: > 100 µM
TK-10 renal
  GI50: > 100 µM
  TGI: > 100 µM
ACHN renal
  GI50: > 100 µM
  TGI: > 100 µM
SK-MEL-28 melanoma
  GI50: > 100 µM
  TGI: > 100 µM
NCI-H322M lung
  GI50: > 100 µM
  TGI: > 100 µM
SK-OV-3 ovarian
  GI50: > 100 µM
  TGI: > 100 µM
PC-3 prostate
  GI50: > 100 µM
  TGI: > 100 µM
K-562 leukemia
  GI50: > 100 µM
  TGI: > 100 µM
786-0 renal
  GI50: > 100 µM
  TGI: > 100 µM
SF-539 CNS
  GI50: > 100 µM
  TGI: > 100 µM
IGROV1 ovarian
  GI50: > 100 µM
  TGI: > 100 µM
SF-295 CNS
  GI50: > 100 µM
  TGI: > 100 µM
MDA-MB-231 breast
  GI50: > 100 µM
  TGI: > 100 µM
SK-MEL-5 melanoma
  GI50: > 100 µM
  TGI: > 100 µM
T-47D breast
  GI50: > 100 µM
  TGI: > 100 µM
SR leukemia
  GI50: > 100 µM
  TGI: > 100 µM
OVCAR-8 ovarian
  GI50: > 100 µM
  TGI: > 100 µM
SF-268 CNS
  GI50: > 100 µM
  TGI: > 100 µM
HOP-62 NSCLC
  GI50: > 100 µM
  TGI: > 100 µM
MALME-3M melanoma
  GI50: > 100 µM
  TGI: > 100 µM
RPMI-8226 leukemia
  GI50: > 100 µM
  TGI: > 100 µM
UACC-257 melanoma
  GI50: > 100 µM
  TGI: > 100 µM
DU-145 prostate
  GI50: > 100 µM
  TGI: > 100 µM
COLO 205 colon
  GI50: > 100 µM
  TGI: > 100 µM
LOX IMVI melanoma
  GI50: > 100 µM
  TGI: > 100 µM
OVCAR-5 ovarian
  GI50: > 100 µM
  TGI: > 100 µM
CAKI-1 renal
  GI50: > 100 µM
  TGI: > 100 µM
U251 CNS
  GI50: > 100 µM
  TGI: > 100 µM
SK-MEL-2 melanoma
  GI50: > 100 µM
  TGI: > 100 µM
NCI-H226 lung
  GI50: > 100 µM
  TGI: > 100 µM
HT29 colon
  GI50: > 100 µM
  TGI: > 100 µM
HOP-92 NSCLC
  GI50: > 100 µM
  TGI: > 100 µM
EKVX NSCLC
  GI50: > 100 µM
  TGI: > 100 µM
BT-549 breast
  GI50: > 100 µM
  TGI: > 100 µM
A549 NSCLC
  GI50: > 100 µM
  TGI: > 100 µM
NCI/ADR-RES ovarian
  GI50: > 100 µM
  TGI: > 100 µM
MOLT-4 leukemia
  GI50: > 100 µM
  TGI: > 100 µM
NCI-H460 lung
  GI50: > 100 µM
  TGI: > 100 µM
OVCAR-4 ovarian
  GI50: > 100 µM
  TGI: > 100 µM
CCRF-CEM leukemia
  GI50: > 100 µM
  TGI: > 100 µM
A498 renal
  GI50: > 100 µM
  TGI: > 100 µM
SNB-75 CNS
  GI50: > 100 µM
  TGI: > 100 µM
HL-60(TB) leukemia
  GI50: > 100 µM
  TGI: > 100 µM
RXF 393 renal
  GI50: > 100 µM
  TGI: > 100 µM
UO-31 renal
  GI50: > 100 µM
  TGI: > 100 µM
MCF7 breast
  GI50: > 100 µM
  TGI: > 100 µM
MDA-MB-435
  GI50: > 100 µM
  TGI: > 100 µM
HS 578T breast
  GI50: > 100 µM
  TGI: > 100 µM
NCI-H522 lung
  GI50: > 100 µM
  TGI: > 100 µM
NCI-H23 lung
  GI50: > 100 µM
  TGI: > 100 µM
HCT-15 colon
  GI50: > 100 µM
  TGI: > 100 µM
SN12C renal
  GI50: > 100 µM
  TGI: > 100 µM
SW-620 colon
  GI50: > 100 µM
  TGI: > 100 µM
MDA-N
  GI50: > 100 µM
  TGI: > 100 µM
UACC-62 melanoma
  GI50: > 100 µM
  TGI: > 100 µM
M14 melanoma
  GI50: > 100 µM
  TGI: > 100 µM
